This is an account of results in BindingDB's records for doi:10.1021/jm00354a003 (1983).

Protein sequences, listed by entry. Tags and fused reporters are not part of them.
UniProt B0FL73, whole entry: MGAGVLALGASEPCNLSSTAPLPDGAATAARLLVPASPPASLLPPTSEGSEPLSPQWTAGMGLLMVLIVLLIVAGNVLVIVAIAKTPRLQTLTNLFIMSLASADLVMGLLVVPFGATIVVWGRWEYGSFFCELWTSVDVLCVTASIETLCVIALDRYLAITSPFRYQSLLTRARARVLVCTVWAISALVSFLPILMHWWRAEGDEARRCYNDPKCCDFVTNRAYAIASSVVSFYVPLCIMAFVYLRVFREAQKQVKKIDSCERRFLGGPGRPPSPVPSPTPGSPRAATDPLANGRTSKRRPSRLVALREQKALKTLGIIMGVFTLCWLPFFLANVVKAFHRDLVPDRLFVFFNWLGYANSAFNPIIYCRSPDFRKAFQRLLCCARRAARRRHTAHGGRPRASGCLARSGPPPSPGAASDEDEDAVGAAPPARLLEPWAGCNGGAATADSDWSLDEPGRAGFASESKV

pKd: −log10 of the molar value.

The target in assay [1] is T1, Beta-1 adrenergic receptor (Cavia porcellus, UniProt B0FL73). The experiment in a line: Ability to block Beta-1 adrenergic receptor in guinea pig right atria preparation at a duration of 3h.
Assay [2] concerns the target T1, Beta-1 adrenergic receptor.

As to `COC(=O)CCc1ccc(OCC(O)CNC(C)C)cc1` (configuration not stated) [Brevibloc], the pKd in assay [1] and in assay [2] was 12.00 each time.
